# Reference: patent US6770442B2, “Methods for modulating the solubility of synthetic polymers” (Boston Probes, Inc., priority 1998, dated 2004)
# Test: UV Tm analysis of unimolecular PNA hairpins (9 bp stem duplex)
# Format: physicochemical
# Conditions: [1] approx. 7.5 μM; Buf: Tm Buffer (10 mM sodium phosphate, pH 7.0)
# Experimental: The five Tm Samples of a dilution series of a particular unimolecular probe to be analyzed were simultaneously examined using a Cary 100 Bio UV-Visible Spectrophotometer (Varian Instruments) equipped with a 6×6 thermostatable multicell block running Win UV Bio application software package. To a 10×10 UV cell (Starna Cells, P/N 21-Q-10) was added a 7.2 mm stir bar and the 2.5 mL of each sample of the dilution series. The stirring accessory was used during all analysis. All samples were thermally denatured and reannealed prior to data collection by having the instrument rapidly ramp the temperature to a point above the melting temperature and then holding that temperature for 5-10 minutes before returning to the starting temperature. The temperature range over which data was collected was varied in response to the expected Tm which was roughly determined during the premelt and prereannealing step. Regardless of the temperature range, the temperature ramp rate for both melting “M” and reannealing “R” was always 0.5°C./min. The absorbance (260 nm, averaged over a 3 second collection) was plotted vs. the temperature of the multicell block.
# After the Tm analysis was performed in Tm Buffer, to each cell was added 0.5 μL of 5M MgCl2 to thereby prepare a sample containing 1 mM MgCl2. The dilution effect was considered to be negligible. The Tm analysis was then performed again to determine whether the presence of MgCl2 had any; effect on the Tm of the unimolecular probe.
# After the Tm analysis was performed in Tm Buffer and 1 mM MgCl2, to each cell was added 42 μL of saturated NaCl (approximately 6.11 M/L). The dilution effect was again considered to be negligible. The Tm analysis was then performed again to determine whether the presence of approximately 100 mM NaCl had any effect on the Tm of the unimolecular probe.
Substance,"Tm, melting M [°C]","Tm, reannealing R [°C]"
Flu-OEE-ATA-TAT-TGG-CTG-ATC-CAA-TAT-AT-EE-K(dabcyl)-NH2 [P4],81.6,80.9
"H-ATA-TAT-TGG-CTG-ATC-CAA-TAT-AT-KK-NH2 [PNAD, reference compound]",81.1,80.4
H-OEE-ATA-TAT-TGG-OO-CCA-ATA-TAT-EEK-NH2 [P3N],82.6,82.3
H-OEE-ATA-TAT-TGG-CTG-ATC-CAA-TAT-AT-EEK-NH2 [P4N],81.6,81.4
